{
  "source": "patent US20040265931",
  "proteins": {"B1": {"name": "recombinant Flag-HAUSP-cs (protein)", "chain": "MNHQQQQQQQKAGEQQLSEPEDMEMEAGDTDDPPRITQNPVINGNVALSDGHNTAEEDMEDDTSWRSEATFQFTVERFSRLSESVLSPPCFVRNLPWKIMVMPRFYPDRPHQKSVGFFLQCNAESDSTSWSCHAQAVLKIINYRDDEKSFSRRISHLFFHKENDWGFSNFMAWSEVTDPEKGFIDDDKVTFEVFVQADAPHGVAWDSKKHTGYVGLKNQGATSYMNSLLQTLFFTNQLRKAVYMMPTEGDDSSKSVPLALQRVFYELQHSDKPVGTKKLTKSFGWETLDSFMQHDVQELCRVLLDNVENKMKGTCVEGTIPKLFRGKMVSYIQCKEVDYRSDRREDYYDIQLSIKGKKNIFESFVDYVAVEQLDGDNKYDAGEHGLQEAEKGVKFLTLPPVLHLQLMRFMYDPQTDQNIKINDRFEFPEQLPLDEFLQKTDPKDPANYILHAVLVHSGDNHGGHYVVYLNPKGDGKWCKFDDDVVSRCTKEEAIEHNYGGHDDDLSVRHCTNAYMLVYIRESKLSEVLQAVTDHDIPQQLVERLQEEKRIEAQKRKERQEAHLYMQVQIVAEDQFCGHQGNDMYDEEKVKYTVFKVLKNSSLAEFVQSLSQTMGFPQDQIRLWPMQARSNGTKRPAMLDNEADGNKTMIELSDNENPWTIFLETVDPELAASGATLPKFDKDHDVMLFLKMYDPKTRSLNYCGHIYTPISCKIRDLLPVMCDRAGFIQDTSLILYEEVKPNLTERIQDYDVSLDKALDELMDGDIIVFQKDDPENDNSELPTAKEYFRDLYHRVDVIFCDKTIPNDPGFVVTLSNRMNYFQVAKTVAQRLNTDPMLLQFFKSQGYRDGPGNPLRHNYEGTLRDLLQFFKPRQPKKLYYQQLKMKITDFENRRSFKCIWLNSQFREEEITLYPDKHGCVRDLLEECKKAVELGEKASGKLRLLEIVSYKIIGVHQEDELLECLSPATSRTFRIEEIPLDQVDIDKENEMLVTVAHFHKEVFGTFGIPFLLRIHQGEHFREVMKRIQSLLDIQEKEFEKFKFAIVMTGRHQYINEDEYEVNLKDFEPQPGNMSHPRPWLGLDHFNKAPKRSRYTYLEKAIKIHN"}},
  "biological_target": "ubiquitinated Flag-p53",
  "data": [
    {"protein": "B1", "values": [
      {"measurement": "in vitro deubiquitination of purified ubiquitinated p53", "value": "the mutant was functionally defective in deubiquitinating p53 in vitro"}
    ]}
  ]
}
